Test results published in EP4549446A1 (priority 2023, dated 2025).

Legend:
[1] = test system: AML cell lines; assay: Cell viability by flow cytometry in AML cell lines and donor cell subpopulations; assay type: cell-based, human; conditions: HL60, U937, CD45+, CD34+, B lymphocytes and T lymphocytes, 0-100 µM, 18 h
[2] = test system: AML, ALL, and MM cell lines; assay: Cell viability by MTT assay in AML, ALL and MM cell lines; conditions: MTT assay and flow cytometry; 0-100 µM; 18 h; HL60, KG1a, U937, MV-4-11, TMLCL, Jurkat, MM1.S, OPM-2, U266; compared to untreated control cells

| SMILES | proapoptotic effect on AML cell lines [1] | viability of AML, ALL, and MM cell lines [2] |
| --- | --- | --- |
| CCOP(=O)(NCCCCCCCCN=C=S)OCC | partially selective proapoptotic effect | significantly reduced the viability |
| CCOP(=O)(NCCCCCCN=C=S)OCC | partially selective proapoptotic effect | significantly reduced the viability |
| CCOP(=O)(NCCCCN=C=S)OCC |  | significantly reduced the viability |
